Data reported in patent US20230134922A1, “TOPICAL DELIVERY OF BUFFERING AGENTS FOR PREVENTION AND TREATMENT OF VIRAL INFECTIONS” (Dyve Biosciences, Inc., priority 2020, published 2023).

Tested on: MCF-7 tumors
Experiment: MCF-7 tumor growth in SCID mice, doxorubicin with oral or topical bicarbonate
Format: in vivo

doxorubicin was tested, and the “anal discharge (GI tract cytotoxicity)” value (Group D, doxorubicin with oral bicarbonate) was “anal discharge” and the “anal discharge (GI tract cytotoxicity)” value (Group F, doxorubicin with topical bicarbonate formulation) was “not noted”.
